Measured values published in US20070066616A1, “Inhibitors for extracellular signal-regulated kinase docking domains and uses therefor” (priority 2005, published 2007).

Protein sequences, listed by entry. Tags and fused reporters are not part of them.
UniProt P63085, whole entry: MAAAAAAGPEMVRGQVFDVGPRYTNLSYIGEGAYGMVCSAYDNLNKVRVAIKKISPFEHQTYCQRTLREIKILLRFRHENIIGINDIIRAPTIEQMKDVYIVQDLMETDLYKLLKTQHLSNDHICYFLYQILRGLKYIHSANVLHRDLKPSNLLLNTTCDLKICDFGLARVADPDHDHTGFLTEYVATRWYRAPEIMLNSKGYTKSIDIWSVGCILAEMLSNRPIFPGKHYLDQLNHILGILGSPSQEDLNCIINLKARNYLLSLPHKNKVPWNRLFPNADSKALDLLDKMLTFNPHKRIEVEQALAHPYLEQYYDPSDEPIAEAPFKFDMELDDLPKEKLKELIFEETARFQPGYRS

How the values were obtained:
ERK2 = ERK2 (Mus musculus, UniProt P63085); assay: Fluorescence titration (quenching of intrinsic ERK2 fluorescence); type: binding
[1] = test system: HeLa, A549, or SUM-159 cells; assay: Colony formation assay, screen of test compounds (FIG. 7A); set-up: dose or concentration left out as unconfirmed; settings: FIG. 7A screen as printed

ERK2 fluorescence quenching / binding (in words) (ERK2): bind to directly ERK2
Compound: O=C(CSc1nc2ccccc2o1)Nc1ccc(-n2cnnn2)cc1
effect on colony formation / cell proliferation (in words) [1]: inhibited colony formation
